Test results from ChEMBL document CHEMBL3526116, “Toxicological evaluation of acyl glucuronides of nonsteroidal anti-inflammatory drugs using human embryonic kidney 293 cells stably expressing human UDP-glucuronosyltransferase and human hepatocytes” (Drug Metab Dispos, 2011).

Assay: Ratio of drug level in human hepatocytes to HEK293 cells expressing UGT1A3 treated with diclofenac at 0.1 mM
Settings: 100 µM

In the case of `O=C(Cc1ccccc1Nc1c(Cl)cccc1Cl)O[C@@H]1O[C@H](C(=O)O)[C@@H](O)[C@H](O)[C@H]1O`, the Ratio is reported as 6.
